Reference: patent US20230144385A1, “ETHANOLAMINE FORMULATION FOR TREATING EPITHELIAL OVARIAN CARCINOMA” (METANOI THERAPEUTICS, INC., priority 2020, published 2023)

Columns and labels:
[1] = Bioavailability and PK of orally-delivered Etn and PhosE; format: in vivo; details: oral, compared to PhosE
[2] = test system: OVCAR3; test: MTT dose-response, ovarian cancer cell line; format: cell-based; details: OVCAR3 versus the other cell lines
Description: PhosE was ineffective in inhibiting proliferation and colony formation of these cell lines up to 100 mg/ml (data not shown).

PK properties [1]: better
SMILES: NCCO [Etn, Monoethanolamine]
susceptibility of cell line relative to other lines tested [2]: most susceptible
